Data taken from PMC8292404, “Phase 1b/2 trial of tepotinib in sorafenib pretreated advanced hepatocellular carcinoma with MET overexpression” (British Journal of Cancer, 2021).
Where “and” joins values, the source holds several entries; their conditions need not be identical. Equal entries are not always repeated.

Columns and labels:
[1] = Phase 1b: pharmacokinetics at Cycle 1, Day 15; format: in vivo; details: HCC population Phase 1b versus first-in-human trial (ref 24)
Procedure: (§1) Additional patients were enrolled at the RP2D.
The primary endpoint in Phase 1b was incidence of dose-limiting toxicities (DLTs) during Cycle 1. Details of DLTs are defined in Supplementary Table 3. Pharmacokinetics (PK) endpoints, including Cmax, and area under the concentration–time curve over the dosing interval at steady state (AUCτ,ss), were evaluated at Cycle 1, Day 15 as a secondary endpoint in Phase 1b. Selected efficacy measures were evaluated as secondary endpoints in Phase 1b.

[2] = test system: sorafenib pretreated aHCC with MET overexpression; experiment: Phase 2: progression-free survival, response, TTP, OS, AFP response; format: in vivo, human
Procedure: as §1
In both phases, tumour assessments were performed per RECIST v1.1 and modified RECIST[29] v1.1 on Day 1 of every second cycle from Cycle 3 to 13, and Day 1 of every fourth cycle thereafter. Exploratory endpoints included biomarkers of MET pathway activity (including MET amplification status).
For the Phase 2 primary endpoint, the null hypothesis that the 12-week progression-free rate is ≤15% (based on historical data)[23] was tested against a one-sided alternative hypothesis that the 12-week progression-free rate is 30%, using a binomial exact test with an α value of 0.05. A sample size of 48 patients was required to achieve a power of at least 80%.
Tumour response (best overall response, ORR, DCR) and biological response were summarised, along with corresponding two-sided exact Clopper–Pearson 90% confidence intervals (CIs). Kaplan–Meier estimates of median PFS, TTP, time to symptomatic progression and OS are presented, along with 90% CIs (calculated using the two-sided exact Clopper–Pearson method). All statistical analyses were performed using SAS® Software version 9.4 (Statistical Analysis System, SAS-Institute, Cary, North Carolina, US).

[3] = test system: patients with sorafenib pretreated aHCC with MET overexpression; experiment: Phase 2: adverse events (NCI CTCAE v4.0)
Description: In both study phases, eligible patients were ≥18 years old with aHCC, Child–Pugh Class A liver function score, Eastern Cooperative Oncology Group performance status 0 or 1, and measurable disease defined by Response Evaluation Criteria In Solid Tumors (RECIST) v1.1. […] Exclusion criteria included any prior systemic anti-cancer treatment for aHCC (besides sorafenib) and presence of symptomatic or untreated brain metastases. Full inclusion and exclusion criteria are shown in Supplementary Table 1.
as §1
In Phase 2, the primary endpoint was progression-free survival (PFS) status after 12 weeks of treatment, as assessed by the investigator per RECIST v1.1. Secondary endpoints included TTP, time to symptomatic progression, objective response rate (ORR), disease control rate (DCR) (all investigator-assessed and per RECIST v1.1), PFS per modified RECIST v1.1 (investigator-assessed), OS and biological response (defined as a decrease in AFP >20%). As sensitivity analyses, PFS and TTP were also evaluated by independent review. Safety was assessed via reporting of adverse events (AEs), graded according to National Cancer Institute Common Terminology and Criteria for Adverse Events v4.0.
Continuous variables, including PK data, were summarised using descriptive statistics; qualitative variables were summarised by means of counts and percentages.

[4] = test system: aHCC with MET overexpression; design: method as in PMID 33972742; details: Asian patients, no prior systemic anti-cancer therapy; cited from earlier work
[5] = Phase 2, 49 patients, investigator-assessed
[6] = Phase 2, eight patients with MET IHC 3+
[7] = Phase 2, overall (n = 49), brackets 90% CI
[8] = Phase 2, six patients positive for MET amplification
[9] = investigator RECIST v1.1, Phase 2 500 mg/day (N = 49)
[10] = investigator mRECIST v1.1, Phase 2 500 mg/day (N = 49)

## CN1CCC(COc2cnc(-c3cccc(Cn4nc(-c5cccc(C#N)c5)ccc4=O)c3)nc2)CC1 [tepotinib]
[1]
  AUCτ,ss relative to first-in-human trial in advanced solid tumours: 47%
  Cmax relative to first-in-human trial in advanced solid tumours: 52%
[2]; Phase 2, 500 mg QD, N = 49, investigator-assessed, RECIST v1.1, primary endpoint
  12-week PFS (patients progression-free at 12 weeks): 63.3%
[2]; Phase 2, 4/49
  investigator-assessed ORR: 8.2%
[2]; Phase 2, 14 of 45 patients with baseline and post-baseline AFP
  biological response (decrease in AFP concentration of >20%): 31.1%
[2]; Phase 2, 28/49
  DCR: 57.1%
[2]; Phase 2, 40 of 49
  patients who had died at the time of analysis: 81.6%
[2]; [5]
  PR: 6.1%
  complete response (CR): 2.0%
[2]; [6]
  CR: 12.5%
  DCR: 62.5%
[2]; Phase 2, overall
  Median PFS by independent review committee: 3.2 months
  median TTP by independent review committee: 4.2 months
[2]; [7]
  Median PFS, investigator-assessed: 3.4 months
  Median investigator-assessed TTP: 4 months and 4.0 months
  median OS: 5.6 months
[2]; [8]
  CR: 16.7%
  not evaluable: 16.7%
[2]; Phase 2, two patients with AFP missing
  12-week PFS: 100%
[2]; [9]
  Best overall response Not evaluable: 6 (12.2) n (%)
  Best overall response PD: 15 (30.6) n (%)
  Best overall response PR: 3 (6.1) n (%)
  Best overall response SD: 24 (49.0) n (%)
[2]; [10]
  Best overall response Non-CR/Non-PD: 7 (14.3) n (%)
  Best overall response Not evaluable: 5 (10.2) n (%)
  Best overall response PD: 13 (26.5) n (%)
  Best overall response PR: 4 (8.2) n (%)
  Best overall response SD: 19 (38.8) n (%)
[3]; Phase 2
  Grade ≥3 treatment-related increased lipase: 6.1%
  Grade ≥3 treatment-related peripheral oedema: 6.1%
[3]; Phase 2, 500 mg QD
  ascites, AE of any cause: 34.7%
  diarrhoea, AE of any cause: 32.7%
  peripheral oedema, AE of any cause: 65.3%
[3]; Phase 2, 500 mg QD, N = 49
  patients with Grade ≥3 AEs of any cause: 57.1%
  patients with Grade ≥3 treatment-related AEs: 28.6%
  patients with an AE of any cause: 98.0%
  patients with treatment-related AEs: 83.7%
[3]; Phase 2, Grade ≥3
  treatment-related Ascites: 2 (4.1) n (%)
  treatment-related Asthenia: 0 n (%)
  treatment-related Blood creatinine increased: 1 (2.0) n (%)
  treatment-related Decreased appetite: 0 n (%)
  treatment-related Diarrhoea: 0 n (%)
  treatment-related Fatigue: 0 n (%)
  treatment-related Hypoalbuminaemia: 0 n (%)
  treatment-related Lipase increased: 3 (6.1) n (%)
  treatment-related Nausea: 0 n (%)
  treatment-related Peripheral oedema: 3 (6.1) n (%)
  treatment-related Pruritus: 0 n (%)
  treatment-related Vomiting: 0 n (%)
  ≥1 adverse event of any cause: 28 (57.1) n (%)
  ≥1 treatment-related adverse event: 14 (28.6) n (%)
[3]; Phase 2, N = 49
  AEs of any cause that led to death: 16.3%
  permanently discontinued treatment due to AEs of any cause: 34.7%
  permanently discontinued treatment due to treatment-related AEs: 16.3%
[3]; Phase 2, any grade
  treatment-related Ascites: 6 (12.2) n (%)
  treatment-related Asthenia: 11 (22.4) n (%)
  treatment-related Blood creatinine increased: 3 (6.1) n (%)
  treatment-related Decreased appetite: 4 (8.2) n (%)
  treatment-related Diarrhoea: 8 (16.3) n (%)
  treatment-related Fatigue: 9 (18.4) n (%)
  treatment-related Hypoalbuminaemia: 5 (10.2) n (%)
  treatment-related Lipase increased: 3 (6.1) n (%)
  treatment-related Nausea: 7 (14.3) n (%)
  treatment-related Peripheral oedema: 19 (38.8) n (%)
  treatment-related Pruritus: 3 (6.1) n (%)
  treatment-related Vomiting: 4 (8.2) n (%)
  treatment-related asthenia: 22.4%
  treatment-related diarrhoea: 16.3%
  treatment-related fatigue: 18.4%
  treatment-related nausea: 14.3%
  treatment-related peripheral oedema: 38.8%
  ≥1 adverse event of any cause: 48 (98.0) n (%)
  ≥1 treatment-related adverse event: 41 (83.7) n (%)
[3]; Phase 2, hypoglycaemic coma, patient with type 1 diabetes
  AE leading to death deemed by the investigator related to study treatment: one instance
[4]
  time to progression (TTP) versus sorafenib: significant increase
